This passage reports Activity results from ChEMBL document CHEMBL1147048, “Identification of anti-prion compounds as efficient inhibitors of polyglutamine protein aggregation in a zebrafish model” (J Biol Chem, 2007).

This experiment is described as follows: Inhibition of aggregation of HA-HttE*1Q53 mutant expressed in zebrafish embryo at 3 and 30 uM by filter trap assay.

Each structure is given as a SMILES string. Activity calls are given as the source filed them. The calls are words filed in the database; no cut-off is given here.

Regarding `O=C(N/N=C/c1ccc2ccccc2c1)c1ccc(O)c(O)c1`, the result was Active.

Consider `COc1cc(/C=N/N=C(N)N)ccc1OCc1c(C)c(C)c(Br)c(C)c1C.Cl`, for which the outcome was Active.

With `O=C(N/N=C/c1ccc2ccccc2c1)c1cccc(Cl)c1`, the result was Active.
